# Marks after values point to notes of the source that are not given here.
# Assay: claude: adverse events, incl. those leading to dose reduction, interruption or discontinuation
# Description: Cytisinicline was well tolerated and no serious adverse events were reported. Similar rates of adverse events (AE's) were observed between treatment arms (54.7% in the placebo arm vs. 50.9% in the cytisinicline arm). The most commonly reported (>5%) AEs in the placebo arm were anxiety, headache, upper respiratory tract infection, nausea, and Covid-19 infection. In the cytisinicline arm, >5% AEs reported were sleep disturbances, anxiety, headache, fatigue, and upper respiratory tract infection.
# A second measurement consisted of biochemically verified continuous vaping abstinence at any time during treatment, with vaping abstinence at Week 3-6 or Week 6-9 for of cytisinicline treatment vs placebo. 7-day point prevalence rates were compared for vaping abstinence (Week 2 to 12) (FIG. 62). An additional measurement included reduction in daily vaping as measured by cotinine, where cytisinicline treatment vs placebo for a reduction in nicotine vaping using weekly quantitative cotinine levels from Week 2 to Week 12. Safety was assessed by adverse effects and serious adverse effects, considering number, severity, and attribution to study drug. Early beneficial effect was observed and continued throughout the 12 weeks with some weeks at or close to statistical significance (weeks 4, 6, 7, 8, 9, and 12) (FIGS. 63-65). Cotinine values less than 1 were converted to 1 due to extreme asymmetry (FIG. 65)
# Adverse Events are coded using MedDRA version 23.1.
# [1] = Action Taken With Study Drug, Safety Set, N = 106
# [2] = Relationship, Safety Set, N = 106
structure (smiles),measurement,setting,value
O=c1cccc2n1C[C@@H]1CNC[C@H]2C1,AEs reported in >5%,3 mg TID 12 weeks,"sleep disturbances, anxiety, headache, fatigue, and upper respiratory tract infection"
same,serious adverse events,3 mg TID 12 weeks,no serious adverse events were reported
same,tolerability,3 mg TID 12 weeks,well tolerated
same,Any Serious Adverse Events,3 mg TID 12 wks (N = 106),0(0) n (%)
same,At Least One TEAE,3 mg TID 12 wks (N = 106),54(50.9) n (%)
same,"TEAE, Mild",3 mg TID 12 wks (N = 106),50(47.2) n (%)
same,"TEAE, Moderate",3 mg TID 12 wks (N = 106),16(15.1) n (%)
same,"TEAE, Related",3 mg TID 12 wks (N = 106),30(28.3) n (%)
same,"TEAE, Severe","3 mg TID 12 wks (N = 106), Abnormal Dreams",1(0.9)* n (%)
same,"Abnormal dreams, %","12 wks, N = 106",12.3%
same,"Anxiety, %","12 wks, N = 106",9.4%
same,"At Least One TEAE, %","12 wks, N = 106",50.9%
same,"COVID-19, %","12 wks, N = 106",2.8%
same,"Fatigue, %","12 wks, N = 106",5.7%
same,"Headache, %","12 wks, N = 106",6.6%
same,"Insomnia, %","12 wks, N = 106",10.4%
same,"Nausea, %","12 wks, N = 106",4.7%
same,"Upper respiratory tract infection, %","12 wks, N = 106",5.7%
same,"TEAE, Dose Interrupted, events",[1],1 Events
same,"TEAE, Dose Interrupted, percent of subjects",[1],0.9%
same,"TEAE, Dose Interrupted, subjects",[1],1 n
same,"TEAE, Dose Not Changed, events",[1],101 Events
same,"TEAE, Dose Not Changed, percent of subjects",[1],48.1%
same,"TEAE, Dose Not Changed, subjects",[1],51 n
same,"TEAE, Dose Reduced, events",[1],3 Events
same,"TEAE, Dose Reduced, subjects",[1],3 n
same,"TEAE, Drug Withdrawn, events",[1],7 Events
same,"TEAE, Drug Withdrawn, percent of subjects",[1],3.8%
same,"TEAE, Drug Withdrawn, subjects",[1],4 n
same,"TEAE, action Not Applicable, events",[1],7 Events
same,"TEAE, action Not Applicable, percent of subjects",[1],4.7%
same,"TEAE, action Not Applicable, subjects",[1],5 n
same,TEAE outcome Fatal,"Outcome, Safety Set, N = 106",0 n
same,"TEAE outcome Not recovered/Not resolved, percent of subjects","Outcome, Safety Set, N = 106",13.2%
same,"TEAE outcome Not recovered/Not resolved, subjects","Outcome, Safety Set, N = 106",14 n
same,TEAE outcome Recovered/Resolved with sequelae,"Outcome, Safety Set, N = 106",0 n
same,"TEAE outcome Recovered/Resolved, percent of subjects","Outcome, Safety Set, N = 106",44.3%
same,"TEAE outcome Recovered/Resolved, subjects","Outcome, Safety Set, N = 106",47 n
same,"TEAE outcome Recovering/Resolving, percent of subjects","Outcome, Safety Set, N = 106",2.8%
same,"TEAE outcome Recovering/Resolving, subjects","Outcome, Safety Set, N = 106",3 n
same,"Definite related TEAE, events",[2],3 Events
same,"Definite related TEAE, percent of subjects",[2],2.8%
same,"Definite related TEAE, subjects",[2],3 n
same,"Not Related TEAE (sub-category), events",[2],55 Events
same,"Not Related TEAE (sub-category), percent of subjects",[2],30.2%
same,"Not Related TEAE (sub-category), subjects",[2],32 n
same,"Not Related TEAE (total: not related and unlikely), events",[2],65 Events
same,"Not Related TEAE (total: not related and unlikely), percent of subjects",[2],35.8%
same,"Not Related TEAE (total: not related and unlikely), subjects",[2],38 n
same,"Possible related TEAE, events",[2],29 Events
same,"Possible related TEAE, percent of subjects",[2],16.0%
same,"Possible related TEAE, subjects",[2],17 n
same,"Probable related TEAE, events",[2],22 Events
same,"Probable related TEAE, percent of subjects",[2],15.1%
same,"Probable related TEAE, subjects",[2],16 n
same,"Related TEAE, events",[2],54 Events
same,"Related TEAE, percent of subjects",[2],28.3%
same,"Related TEAE, subjects",[2],30 n
same,"Unlikely related TEAE, events",[2],10 Events
same,"Unlikely related TEAE, percent of subjects",[2],8.5%
same,"Unlikely related TEAE, subjects",[2],9 n
same,"AE, events","Safety Set, N = 106",123 Events
same,"At Least One AE, percent of subjects","Safety Set, N = 106",52.8%
same,"At Least One AE, subjects","Safety Set, N = 106",56 n
same,At Least One Related Serious TEAE,"Safety Set, N = 106",0 n
same,At Least One Serious TEAE,"Safety Set, N = 106",0 n
same,"At Least One TEAE Leading to Dose Reduction, Dose Interrupted or Study Drug Discontinuation, subjects","Safety Set, N = 106",7 n
same,"TEAE leading to dose reduction, interruption or discontinuation: Abdominal discomfort, subjects","Safety Set, N = 106",1 n
same,"TEAE leading to dose reduction, interruption or discontinuation: Abnormal dreams, subjects","Safety Set, N = 106",1 n
same,"TEAE leading to dose reduction, interruption or discontinuation: Anal fissure, subjects","Safety Set, N = 106",1 n
same,"TEAE leading to dose reduction, interruption or discontinuation: Anxiety, subjects","Safety Set, N = 106",2 n
same,"TEAE leading to dose reduction, interruption or discontinuation: Depression, subjects","Safety Set, N = 106",0 n
same,"TEAE leading to dose reduction, interruption or discontinuation: Fatigue, subjects","Safety Set, N = 106",1 n
same,"TEAE leading to dose reduction, interruption or discontinuation: Headache, subjects","Safety Set, N = 106",0 n
same,"TEAE leading to dose reduction, interruption or discontinuation: Insomnia, subjects","Safety Set, N = 106",2 n
same,"TEAE leading to dose reduction, interruption or discontinuation: Irritability, subjects","Safety Set, N = 106",1 n
same,"TEAE leading to dose reduction, interruption or discontinuation: Nausea, subjects","Safety Set, N = 106",0 n
same,"TEAE leading to dose reduction, interruption or discontinuation: Panic attack, subjects","Safety Set, N = 106",2 n
same,"TEAE leading to dose reduction, interruption or discontinuation: Pregnancy, subjects","Safety Set, N = 106",0 n
same,"TEAE: Abdominal discomfort, percent","Safety Set, N = 106",(0.9) %
same,"TEAE: Abdominal discomfort, subjects","Safety Set, N = 106",1 n
same,"TEAE: Abnormal dreams, percent","Safety Set, N = 106",(12.3) %
same,"TEAE: Abnormal dreams, subjects","Safety Set, N = 106",13 n
same,"TEAE: Agitation, subjects","Safety Set, N = 106",0 n
same,"TEAE: Akathisia, percent","Safety Set, N = 106",(0.9) %
same,"TEAE: Akathisia, subjects","Safety Set, N = 106",1 n
same,"TEAE: Alanine aminotransferase increased, subjects","Safety Set, N = 106",0 n
same,"TEAE: Alveolar osteitis, subjects","Safety Set, N = 106",0 n
same,"TEAE: Anal fissure, percent","Safety Set, N = 106",(0.9) %
same,"TEAE: Anal fissure, subjects","Safety Set, N = 106",1 n
same,"TEAE: Animal bite, percent","Safety Set, N = 106",(0.9) %
same,"TEAE: Animal bite, subjects","Safety Set, N = 106",1 n
same,"TEAE: Anxiety, percent","Safety Set, N = 106",(9.4) %
same,"TEAE: Anxiety, subjects","Safety Set, N = 106",10 n
same,"TEAE: Aspartate aminotransferase increased, subjects","Safety Set, N = 106",0 n
same,"TEAE: Attention deficit hyperactivity disorder, percent","Safety Set, N = 106",(0.9) %
same,"TEAE: Attention deficit hyperactivity disorder, subjects","Safety Set, N = 106",1 n
same,"TEAE: Back pain, percent","Safety Set, N = 106",(0.9) %
same,"TEAE: Back pain, subjects","Safety Set, N = 106",1 n
same,"TEAE: Bronchitis, percent","Safety Set, N = 106",(1.9) %
same,"TEAE: Bronchitis, subjects","Safety Set, N = 106",2 n
same,"TEAE: COVID-19, percent","Safety Set, N = 106",(2.8) %
same,"TEAE: COVID-19, subjects","Safety Set, N = 106",3 n
same,"TEAE: Chlamydial infection, percent","Safety Set, N = 106",(0.9) %
same,"TEAE: Chlamydial infection, subjects","Safety Set, N = 106",1 n

# Source: patent US20260382581A1, “COMPOSITIONS COMPRISING CYTISINE IN THE TREATMENT AND/OR PREVENTION OF ADDICTION IN SUBJECTS IN NEED THEREOF” (published 2026)
